Literature values as cited in publication PMC10837402, “Unnatural amino acid substitutions to improve in vivo stability and tumor uptake of ^68Ga-labeled GRPR-targeted TacBOMB2 derivatives for cancer imaging with positron emission tomography” (EJNMMI Radiopharmacy and Chemistry, 2024).

Sequences of proteins named here, by UniProt entry; tags and fusion partners are left off. A change or cut given only in a name is not applied to a line headed by its entry.
UniProt P30550: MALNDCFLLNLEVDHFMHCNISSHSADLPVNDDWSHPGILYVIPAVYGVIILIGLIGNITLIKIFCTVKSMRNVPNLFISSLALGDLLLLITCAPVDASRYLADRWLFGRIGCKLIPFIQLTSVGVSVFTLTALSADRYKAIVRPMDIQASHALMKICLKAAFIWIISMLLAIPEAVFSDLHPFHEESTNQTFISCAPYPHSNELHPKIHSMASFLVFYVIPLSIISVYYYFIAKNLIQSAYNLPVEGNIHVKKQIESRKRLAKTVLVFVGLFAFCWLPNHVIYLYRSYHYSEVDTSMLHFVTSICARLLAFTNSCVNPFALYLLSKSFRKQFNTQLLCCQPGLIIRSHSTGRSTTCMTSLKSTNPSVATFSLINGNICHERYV

target: T1, GRPR (Homo sapiens, UniProt P30550); details: ref Horwell, et al. ([1996]); read-out: GRPR binding affinity (Ki); cited from earlier work
T1 construct: generated using GRPR-expressing PC-3 cells; endogenous in cells; host or cells: PC-3 cells

For Ac-Bombesin(7–14), which Ki is on record?
The Ki was 0.7 nM.

Which Ki does the source give for Ac-[NMe-Gly^11]Bombesin(7–14) here?
Its Ki is 25 nM.

Which Ki does the source give for Ac-[NMe-His^12]Bombesin here?
Its Ki is 0.4 nM.
